Laboratory results as given in ChEMBL document CHEMBL3108672, “Structure-activity relationship of adenosine 5'-diphosphoribose at the transient receptor potential melastatin 2 (TRPM2) channel: rational design of antagonists” (J Med Chem, 2013).

Protein sequences, listed by entry. Tags and fused reporters are not part of them.
UniProt O94759, whole entry: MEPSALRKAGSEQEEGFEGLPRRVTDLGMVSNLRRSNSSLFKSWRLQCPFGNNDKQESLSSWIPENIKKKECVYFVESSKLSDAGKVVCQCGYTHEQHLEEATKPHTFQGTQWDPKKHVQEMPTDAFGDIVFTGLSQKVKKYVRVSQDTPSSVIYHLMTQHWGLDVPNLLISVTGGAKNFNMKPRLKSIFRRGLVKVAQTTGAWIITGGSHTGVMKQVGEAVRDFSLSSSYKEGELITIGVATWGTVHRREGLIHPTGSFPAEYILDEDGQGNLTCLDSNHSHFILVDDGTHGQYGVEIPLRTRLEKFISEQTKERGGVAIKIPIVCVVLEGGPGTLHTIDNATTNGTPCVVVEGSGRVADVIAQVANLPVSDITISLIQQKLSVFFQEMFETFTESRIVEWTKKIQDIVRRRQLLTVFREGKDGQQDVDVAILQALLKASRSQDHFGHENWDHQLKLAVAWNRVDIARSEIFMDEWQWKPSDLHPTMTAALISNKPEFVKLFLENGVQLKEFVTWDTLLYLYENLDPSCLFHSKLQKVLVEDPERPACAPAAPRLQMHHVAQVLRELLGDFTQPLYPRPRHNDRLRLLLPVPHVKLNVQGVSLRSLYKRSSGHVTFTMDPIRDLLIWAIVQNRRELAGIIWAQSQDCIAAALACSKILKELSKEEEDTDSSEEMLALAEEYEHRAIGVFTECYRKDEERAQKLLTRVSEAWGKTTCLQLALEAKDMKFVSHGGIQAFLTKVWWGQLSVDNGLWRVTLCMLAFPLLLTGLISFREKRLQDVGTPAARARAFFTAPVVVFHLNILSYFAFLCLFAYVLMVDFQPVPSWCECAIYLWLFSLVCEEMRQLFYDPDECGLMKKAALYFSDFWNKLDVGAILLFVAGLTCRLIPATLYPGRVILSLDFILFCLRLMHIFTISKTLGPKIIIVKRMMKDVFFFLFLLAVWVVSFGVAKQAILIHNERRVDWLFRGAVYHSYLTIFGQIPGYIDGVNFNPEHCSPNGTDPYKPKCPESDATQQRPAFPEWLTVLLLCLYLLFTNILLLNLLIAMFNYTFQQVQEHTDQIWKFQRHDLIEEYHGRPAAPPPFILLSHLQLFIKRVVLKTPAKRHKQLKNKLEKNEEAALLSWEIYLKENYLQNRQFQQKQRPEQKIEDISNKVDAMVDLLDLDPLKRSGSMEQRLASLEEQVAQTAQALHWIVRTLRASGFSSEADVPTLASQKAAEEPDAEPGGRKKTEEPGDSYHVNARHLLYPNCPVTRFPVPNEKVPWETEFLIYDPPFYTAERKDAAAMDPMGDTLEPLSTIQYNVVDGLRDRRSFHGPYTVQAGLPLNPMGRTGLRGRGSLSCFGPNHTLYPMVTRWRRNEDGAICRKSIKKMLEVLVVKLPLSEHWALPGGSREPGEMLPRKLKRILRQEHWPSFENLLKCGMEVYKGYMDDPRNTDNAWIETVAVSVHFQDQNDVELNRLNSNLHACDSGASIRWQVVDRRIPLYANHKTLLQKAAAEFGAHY

Molecular target: Transient receptor potential cation channel subfamily M member 2 (Homo sapiens, UniProt O94759)

`NCCOB(c1ccccc1)c1ccccc1` showed an IC50 of 1000 nM.
